Earlier results, collected in patent EP3494998A1, “GLYCOSYLATED PSMA INHIBITORS FOR IMAGING AND ENDORADIOTHERAPY” (Technische Universität München, priority 2017, dated 2019).

Conditions: 68Ga- and 177Lu-18, data from a previously published report (Robu 2016); cited from earlier work

Substance	logP
[^68Ga]PSMA I&T [^nat/68Ga-18]	-4.31 ± 0.32
[^177Lu]PSMA I&T [^nat/177Lu-18]	-4.12 ± 0.1
